Source: patent US20130338152A1, “FLUOROPHENYL BICYCLIC HETEROARYL COMPOUNDS” (IRM LLC, priority 2011, published 2013)

By UniProt entry, the sequences of proteins in these tests, tags left out. Residues count along the entry.
UniProt P08069, 31-1367: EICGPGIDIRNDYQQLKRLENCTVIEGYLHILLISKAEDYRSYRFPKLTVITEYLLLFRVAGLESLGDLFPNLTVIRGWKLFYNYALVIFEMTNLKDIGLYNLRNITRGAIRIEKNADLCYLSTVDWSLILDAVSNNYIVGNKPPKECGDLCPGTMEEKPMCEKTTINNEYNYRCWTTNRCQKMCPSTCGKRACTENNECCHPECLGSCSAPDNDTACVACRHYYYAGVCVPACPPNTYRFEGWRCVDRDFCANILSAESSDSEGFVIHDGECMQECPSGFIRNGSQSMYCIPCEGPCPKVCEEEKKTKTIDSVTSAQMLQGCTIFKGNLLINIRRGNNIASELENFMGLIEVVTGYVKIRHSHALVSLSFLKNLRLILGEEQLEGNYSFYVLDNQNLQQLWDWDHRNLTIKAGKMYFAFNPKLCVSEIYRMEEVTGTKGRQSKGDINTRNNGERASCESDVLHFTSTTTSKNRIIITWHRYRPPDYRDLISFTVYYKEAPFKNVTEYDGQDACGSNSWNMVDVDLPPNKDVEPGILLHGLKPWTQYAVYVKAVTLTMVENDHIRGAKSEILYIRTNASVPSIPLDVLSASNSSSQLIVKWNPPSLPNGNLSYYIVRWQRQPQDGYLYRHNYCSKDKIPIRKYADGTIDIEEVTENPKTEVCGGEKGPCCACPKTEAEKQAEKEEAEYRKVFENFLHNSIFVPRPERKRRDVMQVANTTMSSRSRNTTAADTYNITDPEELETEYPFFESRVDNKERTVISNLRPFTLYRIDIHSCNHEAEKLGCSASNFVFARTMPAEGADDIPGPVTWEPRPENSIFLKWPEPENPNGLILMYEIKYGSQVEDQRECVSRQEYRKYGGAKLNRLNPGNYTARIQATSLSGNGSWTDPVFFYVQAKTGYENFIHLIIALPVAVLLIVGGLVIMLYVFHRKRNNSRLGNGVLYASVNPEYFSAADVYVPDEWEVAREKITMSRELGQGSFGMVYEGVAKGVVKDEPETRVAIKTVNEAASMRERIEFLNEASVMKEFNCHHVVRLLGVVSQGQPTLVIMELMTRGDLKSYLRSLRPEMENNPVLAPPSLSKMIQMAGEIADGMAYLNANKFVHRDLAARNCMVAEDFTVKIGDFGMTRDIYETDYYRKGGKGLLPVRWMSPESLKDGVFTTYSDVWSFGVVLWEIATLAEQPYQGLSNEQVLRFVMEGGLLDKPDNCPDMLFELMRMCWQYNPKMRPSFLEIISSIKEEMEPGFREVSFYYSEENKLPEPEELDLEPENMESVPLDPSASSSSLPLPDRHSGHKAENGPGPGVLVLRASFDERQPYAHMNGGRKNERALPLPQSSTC

Target: IGF1R (Homo sapiens, UniProt P08069)
Test: Cellular IGF-1R assay: inhibition of IGF1R phosphorylation in Hek293 cells, capture ELISA (MSD)
Type: cell-based
Set-up: expressed in transfected cells; host or cells: Hek293 (Hek293-IGF1R)
Settings: IGF-triggered receptor phosphorylation
Protocol: IVa. Cellular IGF-1R and InsR Assays
Compound-mediated inhibition of IGF1R and INSR phosphorylation in Hek293 cells transduced with the corresponding receptors is assessed in a capture ELISA format using the MSD (Meso Scale Discovery) platform. Briefly, 30′000 cells washed and diluted in starvation medium (DMEM high glucose supplemented with 0.1% BSA) are seeded in 90 μL per well into 96-well plates pre-coated with poly-D-lysine (0.1 mg/mL in PBS/O). After 24 h incubation at 37° C. and 5% CO2, dose-response effects are determined with 3-fold serial compound dilutions, starting at 10 μM. The final vehicle concentration is 0.1% DMSO in all wells. Following pre-incubation with compounds for 1 h, receptor phosphorylation is triggered by a 10 min exposure to 1.0 ng/μL IGF for Hek293-IGF1R cells, and 5.0 ng/μL insulin for Hek293-InsR cells. […] Target phosphorylation is then assessed by transferring volumes corresponding to approx. 6 μg Hek293-IGF1R or 0.6 μg Hek293-InsR lysates to MSD assay plates pre-coated with total-IGF1R or total-InsR Abs, respectively. […] Immune complexes are detected by a SULFO-Tag™-coupled anti-rabbit IgG antibody in the presence of 150 μL MSD read-buffer. Light emission at 620 nm triggered by application of electric current is recorded on a MSD Sectorlmager 6000. […] IC50 values [nM] are determined using 4-parametric curve-fitting (XLfit software, V4.3.2).

IC50	SMILES
92 nM	Nc1ncnc2c1c(-c1cc(OC[C@@H]3CCCO3)ccc1F)cn2[C@H]1C[C@@H](N2CC[S+]([O-])CC2)C1 [Example 11, 5-{2-Fluoro-5-[(S)-1-(tetrahydro-furan-2-yl)methoxy]-phenyl}-7-[cis-3-(1-oxo-1-thiomorpholin-4-yl)-cyclobutyl]-7H-pyrrolo[2,3-d]pyrimidin-4-ylamine]
198 nM	Nc1ncnc2c1c(-c1cc(OC[C@H]3CCCO3)ccc1F)cn2[C@H]1C[C@@H](N2CC[S+]([O-])CC2)C1 [Example 20, 5-{2-Fluoro-5-[(R)-1-(tetrahydro-furan-2-yl)methoxyl]-phenyl}-7-[cis-3-(1-oxo-1-thiomorpholin-4-yl)-cyclobutyl]-7H-pyrrolo[2,3-d]pyrimidin-4-ylamine]
